According to US12702676B2, “Fosfomycin dosing regimens” (priority 2017, dated 2026):

Experiment: ZEUS Phase 2/3 trial, safety (adverse events)
Settings: safety population (n=464)

Substance: piperacillin/tazobactam [P-T]
- treatment-emergent adverse events (TEAEs) observed, % of patients: 32.0%
